Legend:
[1] = tested on: tumour-infiltrating lymphocytes; experiment: Multiplication of tumour-infiltrating lymphocytes from human colon carcinoma fragments; format: cell-based
Description: The nodules of a human colon carcinoma which was removed by an operation from the large intestine is freed of connective tissue and normal parts of the intestine and cut into ca. 2×2×3 mm pieces. The tumour fragments are taken up in Iscove-modified DME medium (Gibco) which contains 15% FCS (BM) and divided equally into four culture dishes which are named A, B, C and D. IL-2 (20 ng/ml) is added to preparation A, aurintricarboxylic acid (4.2 μg/ml) is added to preparation B and IL-2 (20 ng/ml) plus aurintricarboxylic acid (4.2 μg/ml) is added to preparation C. Preparation D remains without additions. Three quarters of the respective culture media is removed each second day without changing the tissue or cell content. […] In the partial culture C the number of lymphocytes has increased 20-fold compared to A or B. The lymphocytes from C are isolated from the partial culture C and they are analysed on the basis of their surface markers.

[2] = tested on: Mononuclear cells from peripheral blood (PBMNC); experiment: Multiplication of NK and T lymphocytes from mononuclear cells of human blood in serum-free medium; format: cell-based
Description: Mononuclear cells from peripheral blood (PBMNC) of a human donor are isolated by means of gradient centrifugation (lymphocyte separation medium, Boehringer Mannheim GmbH, Germany (BM)), washed twice with phosphate-buffered saline solution and taken up in DF medium at a density of 1×10^6 cells/ml and cultured in three separate preparations which are denoted A, B and C. Recombinant human IL-2 (BM, 20 ng/ml) and rh TGFβ1 (BM, 4 ng/ml) are added to preparation A, only IL-2 (20 ng/ml) is added to preparation B and only TGFβ1 (4 ng/ml) is added to preparation C. Half of the culture medium (+cytokine(s)) is renewed every second day and the cell count is adjusted to ca. 1×10^6 cells/ml during the first 7 days and subsequently to ca. […].

Q: Which “multiplication of lymphocytic cells migrated out of tumour fragments (microscopic control)” value ([1]; Iscove-modified DME medium with 15% FCS, after 24-48 hours) does the source give for “IL-2: Human recombinant IL-2 (BM), 20 ng/ml, lymphocyte growth factor” here?
A: not in the partial cultures A, B or D

Q: What about the “number of emigrated lymphocytes compared to day 2” value ([1]; after a ten day culture) of the same substance?
A: remained constant

Q: What about the “multiplication of lymphoid cells” value ([2]; over ca. 16 days) of the same substance?
A: < 50 fold

Q: And the “growth behaviour of the cells (in words)” value ([2]; serum-free DF medium, single cytokine)?
A: then stagnate and die after ca. 20 further days

From patent US6511848B2, “Process for producing and multiplying lymphocytes” (Winfried Albert, priority 1996, dated 2003)
